By UniProt entry, the sequences of proteins in these tests, tags left out. Where a name states a change or a piece, a line headed by the entry shows the natural chain unless it says otherwise.
UniProt P30874: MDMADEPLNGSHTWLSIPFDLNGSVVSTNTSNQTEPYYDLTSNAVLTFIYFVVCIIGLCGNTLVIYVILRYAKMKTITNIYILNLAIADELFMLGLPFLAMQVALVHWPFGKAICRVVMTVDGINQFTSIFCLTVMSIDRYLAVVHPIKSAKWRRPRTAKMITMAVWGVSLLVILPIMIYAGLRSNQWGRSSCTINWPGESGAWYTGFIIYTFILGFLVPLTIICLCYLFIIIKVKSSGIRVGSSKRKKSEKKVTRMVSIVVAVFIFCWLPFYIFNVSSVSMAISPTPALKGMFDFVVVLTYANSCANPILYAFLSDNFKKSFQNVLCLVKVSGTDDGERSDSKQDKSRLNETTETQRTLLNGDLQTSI

In ChEMBL document CHEMBL1143592, “N-terminal sugar conjugation and C-terminal Thr-for-Thr(ol) exchange in radioiodinated Tyr3-octreotide: effect on cellular ligand trafficking in vitro and tumor accumulation in vivo” (J Med Chem, 2005):

Target: Somatostatin receptor type 2 (Homo sapiens, UniProt P30874)
Experiment: In vitro inhibition of [125I][Leu8,D-Trp22,Tyr25] somatostatin 28 binding to human somatostatin receptor type 2 expressed in CCL39 cells; (n=5)
Assay type: cell-based

For C[C@H](O)[C@@H](CO)NC(=O)[C@@H]1CSSC[C@H](NC(=O)[C@H](N)Cc2ccccc2)C(=O)N[C@@H](Cc2ccc(O)c(I)c2)C(=O)N[C@H](Cc2c[nH]c3ccccc23)C(=O)N[C@@H](CCCCN)C(=O)N[C@@H]([C@@H](C)O)C(=O)N1, the IC50 was 1.6 nM.
